Source: ChEMBL document CHEMBL1156157, “1,7-Disubstituted oxyindoles are potent and selective EP(3) receptor antagonists” (Bioorg Med Chem Lett, 2010)

What was measured:
Homo sapiens [1] = species: Homo sapiens; assay: Selectivity ratio of IC50 for human EP3 receptor to IC50 for human IP receptor
Homo sapiens [2] = species: Homo sapiens; assay: Selectivity ratio if IC50 for human EP3 receptor to IC50 for human FP receptor
Homo sapiens [3] = species: Homo sapiens; assay: Selectivity ratio of IC50 for human EP3 receptor to IC50 for human EP1 receptor
Homo sapiens [4] = species: Homo sapiens; assay: Selectivity ratio of IC50 for human EP3 receptor to IC50 for human EP2 receptor
Homo sapiens [5] = species: Homo sapiens; assay: Selectivity ratio of IC50 for human EP3 receptor to IC50 for human EP4 receptor

Ratio IC50 (Homo sapiens [1]): > 1000
Ratio IC50 (Homo sapiens [2]): > 1000
Ratio IC50 (Homo sapiens [3]): > 1000
Ratio IC50 (Homo sapiens [4]): > 1000
Ratio IC50 (Homo sapiens [5]): > 1000
SMILES: O=C(/C=C/c1cccc2c1N(Cc1ccc3ccccc3c1)C(=O)C2O)NS(=O)(=O)c1ccc(F)cc1 (stereo not given)
